From patent US7923016 come the findings set out here.

The target of this assay is wild-type CXCL12-α (UniProt P48061). The assay can be described thus: self-association (monomer-dimer); pulsed-field gradient NMR translational diffusion versus concentration, 20 mM sodium phosphate pH 7.4.

As for “wild-type CXCL12-α (from UniProt P48061 22-89) (ligand)”, the Kd was 120 µM.

A word on the Kd: it is the concentration at which binding is half-saturated. A lower Kd goes with a tighter complex.
